What was measured:
Type in all cases: cell-based
[1] = target: G-protein coupled receptor 3 (GPR3) (Homo sapiens, UniProt P46089, F120A); experiment: cAMP accumulation (AlphaScreen) in HEK293 cells transfected with mutant GPR3, agonist dose-response
[2] = target: G-protein coupled receptor 3 (GPR3) (Homo sapiens, UniProt P46089); experiment: cAMP accumulation (AlphaScreen) in HEK293 cells transfected with GPR3, agonist dose-response, with mutagenesis
[3] = target: G-protein coupled receptor 3 (GPR3) (Homo sapiens, UniProt P46089, C267A); experiment: cAMP accumulation (AlphaScreen) in HEK293 cells transfected with mutant GPR3, agonist dose-response

Chains of the proteins cited; added tags and fusions are not shown.
UniProt P46089, whole entry F120A: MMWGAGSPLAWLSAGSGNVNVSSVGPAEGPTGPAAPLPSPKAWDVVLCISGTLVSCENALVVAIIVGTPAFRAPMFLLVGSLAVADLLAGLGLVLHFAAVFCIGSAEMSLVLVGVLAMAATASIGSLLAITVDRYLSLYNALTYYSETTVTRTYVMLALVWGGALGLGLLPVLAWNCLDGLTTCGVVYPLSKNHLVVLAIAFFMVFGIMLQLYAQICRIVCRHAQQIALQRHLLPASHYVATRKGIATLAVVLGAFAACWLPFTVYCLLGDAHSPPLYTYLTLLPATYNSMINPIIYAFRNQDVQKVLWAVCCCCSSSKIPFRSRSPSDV
UniProt P46089, whole entry C267A: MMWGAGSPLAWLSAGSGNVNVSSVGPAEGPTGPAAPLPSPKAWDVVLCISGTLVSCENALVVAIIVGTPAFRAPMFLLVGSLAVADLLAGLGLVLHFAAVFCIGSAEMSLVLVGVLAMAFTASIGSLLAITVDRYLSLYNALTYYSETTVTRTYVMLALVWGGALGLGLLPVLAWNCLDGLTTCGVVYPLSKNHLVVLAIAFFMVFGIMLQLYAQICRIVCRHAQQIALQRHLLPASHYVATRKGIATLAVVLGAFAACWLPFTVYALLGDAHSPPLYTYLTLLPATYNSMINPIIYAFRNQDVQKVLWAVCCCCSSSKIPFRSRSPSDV

For c1ccc2c(c1)[I+]c1ccccc1-2 [DPI, diphenyleneiodonium chloride], the EC50 [1] was 15 µM, the EC50 [2] was roughly 2000 nM and the EC50 [3] was 5 µM.

Source: publication PMC6056553, “Allosteric sodium binding cavity in GPR3: a novel player in modulation of Aβ production” (Scientific Reports, 2018)
